# Measured values reported in patent publication US6926913B2, “Composition containing molecular iodine” (dated 2005).
# Tests used:
# [1] = unless iodide is present; cited from earlier work
# [2] = Solubility and stability of molecular iodine in solvents on water addition
smiles,measurement,setting,value
II,solubility in water,[1],practically water insoluble
same,stability of solution in TG in the presence of water,[2]; solvent TG,remains stable even in the presence of water
same,behaviour of solution in ethanol after water addition,[2]; solvent ethanol,precipitates
same,behaviour of 2% solution in PEG-400 in the presence of water,[2]; solvent polyethyleneglycol (PEG)-400,precipitates and dissolves again after overnight incubation at room temperature
